# PubChem BioAssay AID540277 (National Center for Advancing Translational Sciences (NCATS), 2011)
# Protein sequences, listed by entry. Tags and fused reporters are not part of them.
# UniProt Q8NER1, whole entry: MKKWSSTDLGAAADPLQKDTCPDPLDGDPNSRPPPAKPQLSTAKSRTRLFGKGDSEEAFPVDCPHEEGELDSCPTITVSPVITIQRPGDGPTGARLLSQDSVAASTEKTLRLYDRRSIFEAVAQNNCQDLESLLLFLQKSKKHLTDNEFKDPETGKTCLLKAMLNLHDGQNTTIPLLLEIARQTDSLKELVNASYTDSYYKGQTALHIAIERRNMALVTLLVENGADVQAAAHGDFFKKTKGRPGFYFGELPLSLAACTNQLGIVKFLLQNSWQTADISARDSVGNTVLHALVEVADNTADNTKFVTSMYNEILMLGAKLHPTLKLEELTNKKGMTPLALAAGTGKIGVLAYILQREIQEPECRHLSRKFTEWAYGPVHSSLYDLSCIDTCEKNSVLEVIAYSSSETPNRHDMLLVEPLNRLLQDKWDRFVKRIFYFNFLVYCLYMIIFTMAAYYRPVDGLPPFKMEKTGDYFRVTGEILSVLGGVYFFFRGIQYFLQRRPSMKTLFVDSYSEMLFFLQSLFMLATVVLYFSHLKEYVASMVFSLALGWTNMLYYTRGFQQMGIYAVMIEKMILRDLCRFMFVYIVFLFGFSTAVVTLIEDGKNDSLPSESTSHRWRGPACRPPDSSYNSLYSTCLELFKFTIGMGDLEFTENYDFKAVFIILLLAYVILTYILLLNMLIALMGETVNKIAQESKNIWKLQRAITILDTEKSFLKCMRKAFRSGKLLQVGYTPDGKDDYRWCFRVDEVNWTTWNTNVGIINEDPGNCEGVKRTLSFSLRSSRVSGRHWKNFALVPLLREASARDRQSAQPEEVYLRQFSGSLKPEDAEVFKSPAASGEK
# Values joined by “and” are separate entries in the source; they are usually repeats but may differ in a detail not shown here. Identical values can stand only once. This is one part of the list. Inconclusive results are not listed. Active and inactive are the calls of the source. Rule as the data show it: active = potentiation above about 80%; inconclusive = between about 30% and that limit; inactive = weaker than that.
# Target: Transient receptor potential cation channel subfamily V member 1 (Homo sapiens) (UniProt Q8NER1)
# Experiment: HTS Assay for Compounds that Act as Potentiators of the Vanilloid Receptor 1; also: 0% is about no effect
# Details: TRPV1-expressing cells, Fluo-8 calcium influx, capsaicin EC20 potentiation; at 8.33 µM; hits give high values
# Source text: The transient receptor potential ion channel, family V, number 1, (TRPV1) is one of the most important molecular transducers of painful stimuli and a potential target for analgesic drug development. Although recent clinical trials with orthosteric antagonists have not produced a successful drug because of a hyperthermia side effect and their tendency to block thermal noxious pain, this ion channel is undeniably well placed in the pain pathway, and the idea of blocking pain signals before they enter the CNS is an excellent concept and of proven efficacy when TRPV1 agonists are used. We propose a new approach involving allosteric modulation to impose an activity-dependent constraint within the context of inflammation and tissue damage that would alter the responsiveness of the channel in a way that an orthosteric vanilloid antagonist cannot achieve. We believe that the allosteric modulator approach has not been explored for this target. The main goal of this proposal is to identify additional, new, potent allosteric modulators of TRPV1 that can be used to investigate TRPV1 function. Our recent report provides evidence of proof of concept, but the compounds are just at the edge of utility in terms of potency. […] The question of whether they can be used as analgesic agents is complex, but if suitable compounds are identified then testing for analgesic properties will be conducted. NIH Chemical Genomics Center [NCGC] NIH Molecular Libraries Probe Centers Network [MLPCN] MLPCN Grant: MH089480-1A1 Assay Submitter (PI): Michael Iadarola, National Institute of Dental and Cranofacial Research
# Upon TRPV1 activation in TRPV1 cells, the channel opens and extracellular cations flow through the channel into the cytosol. A calcium binding dye (Fluo-8) becomes fluorescent when bound to calcium. This dye is pre-loaded into cells and is used as a marker for calcium influx. The amount of accumulated calcium is precisely quantified using the FDSS kinetic reader and the calcium dye. For the HTS assay, freshly prepared cells are plated at a density of 2000/well in 3 ul medium in 1536-well plates and cultured overnight at 35.5C. Cells will be loaded with 1 ul of the homogeneous calcium dye (ABD Bioquest) at room temperature for 40 to 90 minutes. Plates will be loaded into the FDSS kinetic reader and a 1 sec / cycle for 10 second baseline signal will be measured. Compound library will then be added with a pintool at 23 nl and measured kinetically for 3 minutes. This portion of the read is considered the agonist portion of the screen. Following the 3 minutes of incubation, an on board pipettor will deliver 1 ul of capsaicin for a final concentration equal to the EC20. Signal will be measured kinetically for an additional 2 minutes. This portion of the read is considered the allosteric enhancer portion of the screen. The FDSS reader has a standard filter set capable of measuring calcium bound Fluo-8 (ex=480 and em=520 nm).
row,Structure (SMILES),potentiation
1,Cc1ccc(OP(=O)(Nc2ccc([N+](=O)[O-])cn2)Oc2ccc(C)cc2)cc1,inactive: 5.7%
2,CC(C)(C)c1ccc(OP(C)(=O)Nc2ccc(SC(F)(F)F)cc2)cc1 (stereo unspecified),inactive: 2.73%
3,COc1cc(C(=O)NCC2(N3CCOCC3)CCCCC2)ccc1OCC(C)C,inactive: -6.85%
4,C[As](=O)(O)c1cccc(C(=O)O)c1,inactive: 6.76%
5,O=[As](O)(c1ccc(O)cc1)c1ccccc1O,inactive: -13.2%
6,O=[N+]([O-])c1cc([N+](=O)[O-])c(Nc2cccnc2)c([N+](=O)[O-])c1,inactive: 25.3%
7,Cc1cc(C)cc(OP(C)(N)=O)c1 (stereo unspecified),inactive: 26.2%
8,COc1ccc(OP(C)(=O)Nc2cccc(F)c2)cc1 (stereo unspecified),inactive: 1.46%
9,O=[N+]([O-])c1cc([N+](=O)[O-])c(-c2ccn[nH]2)s1,inactive: -2.7%
10,COc1ccccc1OP(C)(=O)Nc1cc(Cl)ccc1C (stereo unspecified),inactive: 2.54%
11,CC(C)NC(=O)NP(=O)(Oc1ccccc1)Oc1ccccc1,inactive: 9.58%
12,CCN(CC)C(=S)SC(NC=O)C(Cl)(Cl)Cl (stereo unspecified),inactive: -13.8%
13,Cc1ccc(NP(C)(=O)Oc2ccccc2)c(C)c1 (stereo unspecified),inactive: 4.11%
14,CC(C)c1ccc(OP(=O)(Nc2ccccn2)Oc2ccccc2F)cc1 (stereo unspecified),inactive: -10.4%
15,COc1ccccc1OP(C)(=O)Nc1ccc(C)cc1 (stereo unspecified),inactive: 15.9%
16,ClCCSc1nnc(-c2cccnc2)o1,inactive: 2.38%
17,COc1cc(I)ccc1[As](=O)(O)O,inactive: -4.26%
18,COc1ccc2nc(NP(=O)(c3ccccc3)c3ccccc3)sc2c1,inactive: -2.25%
19,Cc1cc(=O)[nH]c(N[N+](=O)[O-])n1,inactive: -6.18%
20,CCN(CC)CCCOC(=O)C(O)(c1ccccc1)c1ccccc1,inactive: -7.24%
21,Cc1c2c(nc3ccccc13)SC(C(Cl)Cl)C2 (stereo unspecified),inactive: -18.7%
22,COc1ccc(N/C(=N/P(=O)(N2CCOCC2)N2CCOCC2)N2CCOCC2)cc1,inactive: 3.7%
23,O=C(Nc1ccncc1[N+](=O)[O-])c1ccc([N+](=O)[O-])cc1[N+](=O)[O-],inactive: 2.12%
24,Cc1cc(C)cc(OP(C)(=O)Nc2ccc(SC(F)(F)F)cc2)c1 (stereo unspecified),inactive: 3.09%
25,CP(=O)(NC(=O)Nc1ccccc1)Oc1ccccc1 (stereo unspecified),inactive: 4.94%
26,CCc1ccc(OP(C)(=O)N2CCN(c3ccc([N+](=O)[O-])cc3)CC2)cc1 (stereo unspecified),inactive: -26.3%

row,Structure (SMILES),potentiation
1,CP(=O)(Oc1ccccc1)OC(c1ccccc1)C(F)(F)F (stereo unspecified),inactive: -20.9%
2,COP1(=S)c2c(C)nn(CCC#N)c2N=C(c2ccc(F)cc2)N1C (stereo unspecified),inactive: -10.7%
3,Cc1cccc(C)c1OP(C)(=O)Nc1ccc(SC(F)(F)F)cc1 (stereo unspecified),inactive: -3.81%
4,CP(=O)(Nc1ccc(SC(F)(F)F)cc1)Oc1ccc(Cl)cc1 (stereo unspecified),inactive: -4.8%
5,CP(=O)(Nc1ccccn1)Oc1ccc(Cl)cc1 (stereo unspecified),inactive: 0.614%
6,CCOP(=O)(Nc1cccc2cccnc12)OCC,inactive: 2.81%
7,CCOC(=O)c1ccc(NC(=O)C(C)(CCl)SC)cc1 (stereo unspecified),inactive: 0.435%
8,CCOC(=O)c1ccc(NP(C)(=O)Oc2ccc(OC)cc2)cc1 (stereo unspecified),inactive: 24%
9,O=C(OC1CN2CCC1CC2)c1cccc([N+](=O)[O-])c1 (stereo unspecified),inactive: -9.95%
10,CCOP(C)(=S)SCC(=O)NC(C)C(=O)O (stereo unspecified),inactive: -6.21%
11,Cc1cc(SC(NC(=O)c2ccccc2)C(Cl)(Cl)Cl)nc(C(C)C)n1 (stereo unspecified),inactive: 9.55%
12,CCCCOc1ccc(C(=O)NCC2(N3CCCCC3)CCCCC2)cc1OC,inactive: -7.13%
13,CCOC(=O)Nc1ccc([As](=O)(O)O)c(O)c1,inactive: -2.45%
14,O=[N+]([O-])c1ccc(Nc2ccc(Oc3ccc([N+](=O)[O-])cc3[N+](=O)[O-])cc2)c([N+](=O)[O-])c1,inactive: -5.98%
15,CP(=O)(Nc1ccccc1Br)Oc1ccccc1 (stereo unspecified),inactive: 11%
16,COc1ccccc1OP(C)(=O)Nc1ccccc1 (stereo unspecified),inactive: 1.47%
17,O=P(Nc1ccccn1)(c1cccc2ccccc12)c1cccc2ccccc12,inactive: -2%
18,Cc1cc(SC(NC=O)C(Cl)(Cl)Cl)ncn1 (stereo unspecified),inactive: 1.95%
19,CCOC(=O)Nc1cccc([As](=O)(O)O)c1,inactive: -10.1%
20,CP(=S)(Nn1cnnc1)Oc1ccccc1 (stereo unspecified),inactive: -5.13%
21,O=C(Nc1cc([As](=O)(O)O)ccc1O)c1ccccc1,inactive: 21.4%
22,CCOC(=O)c1ccc(NP(C)(=O)Oc2ccc(Cl)cc2)cc1 (stereo unspecified),inactive: -5.22%
23,CP(=O)(OC12CC3CC(CC(C3)C1)C2)OC12CC3CC(CC(C3)C1)C2,inactive: -10.2%
24,O=[N+]([O-])c1cccc(NC2=NCC(CBr)S2)c1 (stereo unspecified),inactive: 12.5%
25,O=C(O)CNc1ccc([As](=O)(O)O)cc1,inactive: 23%
26,CC(C)(C)C(=O)NC(Sc1ccncn1)C(Cl)(Cl)Cl (stereo unspecified),inactive: -7.89%

row,Structure (SMILES),potentiation
1,O=[N+]([O-])c1ncn(CCn2ncnc2[N+](=O)[O-])n1,inactive: 2.37%
2,O=C(OCCCN1CCCC1)C(O)(c1ccccc1)C1CCCCC1 (stereo unspecified),inactive: -6.46%
3,O=[N+]([O-])c1cccc2n[nH]nc12,inactive: 0.0815%
4,CC(=O)N1C2C3N(C(C)=O)C1C1N(C(C)=O)C(C(N1C(C)=O)N3C(C)=O)N2C(C)=O,inactive: 0.747%
5,COc1ccccc1OP(C)(=O)Nc1c(C)n(C)n(-c2ccccc2)c1=O (stereo unspecified),inactive: 13.1%
6,CCc1ccc(OP(C)(=O)Nc2cccnc2)cc1 (stereo unspecified),inactive: -14.4%
7,CCc1nc2c(n1)c1c(non1O)c1c2no[n+]1[O-],inactive: 3.99%
8,O=[N+]([O-])c1cc([N+](=O)[O-])c(CCNc2ccccc2)c([N+](=O)[O-])c1,inactive: 4.65%
9,CP(=O)(Oc1ccccc1)N1CCOC1=O (stereo unspecified),inactive: 1.75%
10,Cc1ccc(NP(=O)(Oc2ccccc2)Oc2ccccc2)nc1,inactive: -2.69%
11,COc1ccc(OP(C)(=O)Nc2ccc(Br)cc2)cc1 (stereo unspecified),inactive: 1.64%
12,COc1ccc(C2=NCC(CBr)S2)cc1 (stereo unspecified),inactive: 29.4%
13,CCN(CC)CC(O)COC(=O)C(O)(c1ccccc1)C1CCCCC1 (stereo unspecified),inactive: -0.622%
14,CN(C)C(=O)OCCc1n(C)cc[n+]1C,inactive: 11.3%
15,CN(C)C(=O)c1c([N+](=O)[O-])cc([N+](=O)[O-])cc1[N+](=O)[O-],inactive: -7.29%
16,CC(C)=N/N=C(\N)N[N+](=O)[O-],inactive: 6.04%
17,CC1CCN(C(=O)Oc2c(Cl)cc(Cl)c3cccnc23)CC1,inactive: 24.4%
18,C[N+]1=C2C=CC=CC=C2SC12C([N+](=O)[O-])=CC([N+](=O)[O-])=C[C-]2[N+](=O)[O-] (stereo unspecified),inactive: -8.81%
19,CC(C)(C)c1ccc(OP(C)(=O)O)cc1,inactive: 1.41%
20,Nc1ccc([As](=O)(O)c2ccc(N)cc2)cc1,inactive: 10.8%
21,CP(=O)(Nc1ccc(Cl)cc1)Oc1ccc(F)cc1 (stereo unspecified),inactive: -1.26%
22,CCN(/C(=N/P(=O)(N1CCOCC1)N1CCOCC1)N1CCOCC1)c1ccc(OC)cc1,inactive: 3.04%
23,Cc1ccc(OP(=O)(Nc2nccs2)Oc2ccc(C)cc2)cc1,inactive: 4.22%
24,COc1ccccc1OP(=O)(Nc1ccc(C)cn1)Oc1ccccc1OC,inactive: -14.2%
25,COc1ccc(OP(C)(=O)Nc2ccccn2)cc1 (stereo unspecified),inactive: 17.7%
26,CN1CCCC(OC(=O)C(c2ccccc2)c2ccccc2)C1 (stereo unspecified),inactive: 0.542%

row,Structure (SMILES),potentiation
1,Clc1ccc(Cl)c(NC2=NCC(CBr)S2)c1 (stereo unspecified),inactive: -3.48%
2,CN(C)CCOC(=O)C(O)(c1ccccc1)C1CCCC1 (stereo unspecified),inactive: 0.977%
3,NC(=O)c1cc([N+](=O)[O-])cc([N+](=O)[O-])c1N,inactive: 3.37%
4,Cc1ccc(N/C(=N/P(=O)(N2CCOCC2)N2CCOCC2)N2CCOCC2)cc1,inactive: -2.34%
5,CN(C(=O)Cc1ccc(Cl)c(Cl)c1)[C@H]1CCCC[C@H]1N1CCCC1,inactive: -4.19%
6,COc1ccccc1OP(C)(=O)Nc1ccc(Br)cc1 (stereo unspecified),inactive: 12.1%
7,COc1ccccc1OP(C)(=O)Nc1ccc(C)cc1C (stereo unspecified),inactive: -4.84%
8,CP(=O)(Nc1ccccn1)Oc1ccccc1 (stereo unspecified),inactive: 1.82%
9,Cc1c(NP(C)(=O)Oc2ccc(C(C)C)cc2)c(=O)n(-c2ccccc2)n1C (stereo unspecified),inactive: 1.14%
10,Nc1cc(N)c2nonc2c1[N+](=O)[O-],inactive: -8.12%
11,O=[N+]([O-])c1cc([N+](=O)[O-])c(Nc2ccccn2)c([N+](=O)[O-])c1,inactive: 6.74%
12,O=C(NC(Sc1ccncn1)C(Cl)(Cl)Cl)c1ccccc1 (stereo unspecified),inactive: 14.4%
13,Cc1c2non([O-])c-2c(C)[n+](=O)[n+]1[O-],inactive: -15.3%
14,Oc1ccccc1CNc1ccccn1,inactive: -8.27%
15,COc1ccccc1OP(C)(=O)Nc1ccc(C)c(C)c1 (stereo unspecified),inactive: -9.38%
16,Cc1ccc(NP(=O)(Oc2ccccc2F)Oc2ccccc2F)nc1,inactive: -2.56%
17,Cc1cc(SC(NC(=O)c2ccc(F)cc2)C(Cl)(Cl)Cl)ncn1 (stereo unspecified),inactive: -2.98%
18,CCOP(=O)(Nc1ccccc1)OCC,inactive: 8.55% and inactive: -18.7%
19,COc1ccc(OP(C)(=O)Nc2ccccc2Br)cc1 (stereo unspecified),inactive: 17.7%
20,CC(=O)Nc1ccc([As](=O)(O)O)cc1,inactive: 3.64%
21,O=C(O)c1ccccc1[As](=O)(O)O,inactive: 12.2%
22,O=P(Nc1nc2ccc(Cl)cc2s1)(c1ccccc1)c1ccccc1,inactive: -13.1%
23,Cc1cc(C)cc(OP(C)(=O)Nc2cccc(C(F)(F)F)c2)c1 (stereo unspecified),inactive: 0.867%
